{
  "source": "paper PMC8405639",
  "about": "“2-Carba-lysophosphatidic acid is a novel β-lysophosphatidic acid analogue with high potential for lysophosphatidic acid receptor activation and autotaxin inhibition” (Scientific Reports, 2021)",
  "target": "T1, human recombinant ATX (Homo sapiens, UniProt Q13822)",
  "T1 construct": "purchased Cayman Chemical",
  "assay": "Choline oxidase assay of LPC cleavage by ATX",
  "type": "biochemical",
  "conditions": "LPC 16:0 300 µM, ATX 50 nM, 2 h, 37 °C, various concentrations",
  "protocol": "(a) Concentration–response curves for the inhibition of ATX activity as measured by the […] of the substrate lysophosphatidylcholine (LPC) using choline oxidase and peroxidase. LPC 16:0 (final concentration: 300 µM, above its critical micellar concentration [CMC]), human recombinant ATX (final concentration: 50 nM), and various concentrations of cPA analogues were used for incubation with 4-aminoantipyrine, TOOS (final concentration: 0.05% (w/v) each), choline oxidase and peroxidase (final concentration: 10 U/mL each) in the ATX assay buffer. […] Inhibition was calculated as percentage (%) of reduction in absorbance compared with absorbance in the vehicle control (without cPA analogues) after subtraction of the value measured at time 0. Data are represented as mean ± standard deviation (n = 3–4 samples). (b) Inhibition of ATX activity measured by lysophosphatidic acid (LPA 16:0) production via liquid chromatography coupled to triple quadrupole mass spectrometry (LC-QqQ). The substrate LPC 16:0 (final concentration: 300 µM) was incubated with human recombinant ATX (final concentration: 50 nM) and cPA analogues (final concentration: 10 μM) for 2 h at 37 °C. The ATX product, LPA 16:0, was quantified by LC-QqQ. Inhibition was calculated as percentage (%) of reduction in LPA production compared with LPA production in the vehicle control (without cPA analogues). […]",
  "note": "“Also recorded” adds a separate entry of the source.",
  "data": [
    {"compound": "CCCCCCCCC=CCCCCCCCC(=O)OCC(O)COP(=O)(O)O", "note": "(stereo not shown) [LPA 18:1, 1-Oleoyl-LPA]", "values": [
      {"measurement": "Inhibition of lysoPLD activity of ATX (choline oxidase assay)", "value": "almost no inhibitory activity; also recorded: does not inhibit ATX"}
    ]}
  ]
}
